{"sequences": {"note": "Chains of the proteins cited; added tags and fusions are not shown.", "UniProt P27338, whole entry": "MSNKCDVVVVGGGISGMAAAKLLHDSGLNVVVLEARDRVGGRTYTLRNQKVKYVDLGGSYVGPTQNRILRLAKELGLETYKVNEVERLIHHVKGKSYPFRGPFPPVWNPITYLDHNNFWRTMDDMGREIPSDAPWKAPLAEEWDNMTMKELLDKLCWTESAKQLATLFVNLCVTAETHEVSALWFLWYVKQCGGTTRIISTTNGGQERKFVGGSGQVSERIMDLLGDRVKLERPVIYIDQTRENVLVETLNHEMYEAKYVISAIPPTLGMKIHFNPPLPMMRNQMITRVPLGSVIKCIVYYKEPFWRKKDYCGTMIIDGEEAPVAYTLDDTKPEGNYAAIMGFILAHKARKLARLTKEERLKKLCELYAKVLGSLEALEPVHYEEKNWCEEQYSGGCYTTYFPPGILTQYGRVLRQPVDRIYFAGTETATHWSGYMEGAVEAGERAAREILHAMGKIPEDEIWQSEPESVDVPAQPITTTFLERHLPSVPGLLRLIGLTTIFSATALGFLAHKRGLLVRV"}, "source": "ChEMBL document CHEMBL5705903", "about": "“A DNA Hypomethylation Signature Predicts Antitumor Activity of LSD1 Inhibitors in SCLC” (Cancer Cell, 2015)", "target": "Amine oxidase [flavin-containing] B (Homo sapiens, UniProt P27338)", "assay": "Inhibition of MAO-B (unknown origin)"}
{"smiles": "c1ccc([C@@H]2C[C@H]2NC2CCNCC2)cc1", "values": [{"measurement": "IC50", "value": 40, "unit": "µM"}]}
